Laboratory results published in paper PMC12704139, “(±)-Rutacycoumarins A and B: two pairs of unprecedented coumarin enantiomers from the aerial part of Ruta graveolens L. and chemically synthesized” (Pharmaceutical Biology, 2025).
pIC50: −log10 of the molar value.

Amino acid sequences for entries named in this document (tags omitted).
UniProt P27338, whole entry: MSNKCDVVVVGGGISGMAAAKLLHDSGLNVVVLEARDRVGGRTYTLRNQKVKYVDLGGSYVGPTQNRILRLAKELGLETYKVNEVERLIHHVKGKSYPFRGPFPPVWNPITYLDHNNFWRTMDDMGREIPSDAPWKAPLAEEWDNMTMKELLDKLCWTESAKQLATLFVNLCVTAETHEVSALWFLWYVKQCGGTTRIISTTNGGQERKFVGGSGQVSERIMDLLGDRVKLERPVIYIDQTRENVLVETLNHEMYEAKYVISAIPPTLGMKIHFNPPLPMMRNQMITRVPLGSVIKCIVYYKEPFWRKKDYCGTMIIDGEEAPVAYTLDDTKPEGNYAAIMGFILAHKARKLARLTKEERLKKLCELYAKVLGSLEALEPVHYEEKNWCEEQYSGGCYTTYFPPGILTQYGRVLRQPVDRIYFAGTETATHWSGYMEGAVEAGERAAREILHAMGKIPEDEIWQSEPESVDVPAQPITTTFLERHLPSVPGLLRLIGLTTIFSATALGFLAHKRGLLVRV

How the values were obtained:
[1] = tested on: LPS-induced HepG2 cells; assay: ALT and AST in supernatant of LPS-induced HepG2 cells; details: HepG2, 100 ng/mL LPS, compounds 10, 20, 40 μM; for LPS-elevated ALT level / LPS-elevated AST level: p < 0.01 vs. model
[2] = target: recombinant human MAO-B (Homo sapiens, UniProt P27338); assay: Recombinant human MAO-B enzyme inhibition assay; assay type: biochemical; details: n = 3; for pIC50: 10 concentrations starting from 10 μM
[3] = tested on: LPS-induced HepG2 cells; assay: IL-4, IL-10 and TNF-α in supernatant of LPS-induced HepG2 cells (ELISA)
[4] = tested on: HepG2 cells; assay: Cytotoxicity assay (CCK-8); details: 24 h; for survival (cell viability): HepG2, at any tested doses (10 to 100 μM), no significant viability reduction, p > 0.05

| SMILES | LPS-elevated ALT level [1] | LPS-elevated AST level [1] | Residual activity at 10 μM (%) [2] | pIC50 [2] | LPS-induced inflammatory response (pro-inflammatory cytokines) [3] | dose-dependent cytotoxicity, concentration ([4]; HepG2, 10 to 100 μM, p < 0.05 vs. vehicle control) | dose dependence of ALT and AST suppression [1] | survival (cell viability) [4] | potency in cytokine modulation (IL-4, IL-10, TNF-α) ([3]; at 10 μM) |
| --- | --- | --- | --- | --- | --- | --- | --- | --- | --- |
| CC1(C)CC1c1cc2ccc(O)cc2oc1=O (single isomer, unassigned) [(+)-1] | significantly reduced | significantly reduced | 61% | 5.14 | significantly inhibited | above 80 μM |  |  |  |
| COc1cc2cc(C3CC3(C)C)c(=O)oc2cc1O (single isomer, unassigned) [(+)-2] | significantly reduced | significantly reduced | 37% | 4.66 | significantly inhibited |  | Dose-dependent suppression | ≥ 98% |  |
| CC1(C)CC1c1cc2ccc(O)cc2oc1=O (single isomer, unassigned) [(−)-1] | significantly reduced | significantly reduced | 64% | 5.06 | significantly inhibited |  | maximum efficacy at 10 μM | ≥ 98% | exceptional potency |
| COc1cc2cc(C3CC3(C)C)c(=O)oc2cc1O (single isomer, unassigned) [(−)-2] |  |  | 37% | 4.52 |  |  | Dose-dependent suppression | ≥ 98% |  |
